# Compounds with a hit are over-represented: about 13% of the library has one in this group of screens.
# KDM4E inh – inhibitors of human JMJD2E histone demethylase; B2RXH2; JMJD2E catalytic domain, FDH-coupled NADH fluorescence (FDH is formaldehyde dehydrogenase); Potency, µM (doses to about 57.1 µM), for the others: at the top dose activity change, negative = inhibition, hits mostly inhibitors; 1.6% of 230,000 active; active = well fitted inhibition curve with a large enough effect, not every such curve was filed as active; inconclusive = small, poorly fitted or top-dose-only effect, or another doubt; inactive = no such curve, though single readings can be large or run the other way;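 also: potency is read from the fitted curve at half-maximal effect; 0% = wells with enzyme and -100% = buffer wells without enzyme; nearly all actives have a fitted effect of over 50% in size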
# Lamin A splicing – changes lamin A minigene splicing in HeLa cells. HeLa LMNA splicing GFP/RFP minigene ratio, 48 h. Potency, µM (series often up to 46.1 µM), without a hit: at the highest dose ratio change, negative = inhibition, actives largely listed as inhibitors. 0.01% of 200,000 active. AID 1487; active = well fitted inhibition curve with a large enough effect in the signal ratio, with a control signal flat, not every such curve was filed as active; inconclusive = small, poorly fitted or top-dose-only effect, or effect the other way, or a change in a side signal; the % refers to the signal ratio; also: potency is read from the fitted curve at half-maximal effect; % is scaled to controls: 0 for no effect and ±100 for the full control effect
#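 S3 HeLa cells stably expressing lamin A-EGFP splicing minigene plus DsRed2, 600 cells/well, 48 h compound exposure at 37C. Laser-scanning cytometry; analysed as GFP (500-530 nm)/RFP (575-640 nm) total intensity ratio; 0.5% DMSO vehicle.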
# Sfp PPTase inh – inhibitors of Bacillus subtilis Sfp phosphopantetheinyl transferase | Q9F4F7 | Biochemical Sfp PPTase activity, qHTS | Potency, µM, inactives show max response, negative = inhibition, most hits filed as inhibitors | 310,000 tested, 3.5% active | AID 1490; active = well fitted inhibition curve with a large enough effect; inconclusive = small, poorly fitted or top-dose-only effect, or another doubt; inactive = no such curve, though single readings can be large or run the other way;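 note: the enzyme is Sfp with the accession as filed and its product quenches rhodamine fluorescence; potency is the fitted concentration of half-maximal effect; 0% = enzyme reaction without inhibitor and -100% = no enzyme wells; top concentration of the series not given in the record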
#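 Step 1, compound plus 15 nM Sfp-PPTase, 15 min, room temperature. Step 2, add rhodamine-CoA (5 uM) and BHQ-2-YbbR (12.5 uM). Step 3, read 525/598 nm fluorescence at 0 and 30 min.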
# miR-21 reporter – miR-21 reporter, rising signal; HeLa miR-21 FLuc reporter, luciferase, 48 h; Potency, µM (highest dose often 38.3 µM), for the others: top-dose reporter change, positive = more light; 340,000 tested, under 10 active; AID 2288; active = well fitted rising curve with a large enough effect; inconclusive = small, poorly fitted or top-dose-only effect; inactive = no such curve, though single readings can be large or run the other way;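 further: % of control where 0% means no effect; miR-21 action dims this reporter so a rising signal means less miR-21 action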
#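 HeLa cells stably expressing CMV-driven firefly luciferase with a downstream miR-21 binding sequence, endogenously expressing miR-21, were treated with titrations (up to about 40uM final) for 48 hours at 37 degree Celsius. Luciferase luminescence was read after lysis.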
# ALDH1A1 block – blocks purified human ALDH1A1 activity; P00352; Purified ALDH1A1, NADH fluorescence, propionaldehyde substrate; Potency, µM (highest dose often 75.3 µM), inactives show at the top dose activity, negative = inhibition, usual class: inhibitors; 7.3% of 220,000 active; AID 1030; active = well fitted inhibition curve with a large enough effect, not every such curve was filed as active; inconclusive = small, poorly fitted or top-dose-only effect, or another doubt; inactive = no such curve, though single readings can be large or run the other way;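 also: potency is read from the fitted curve at half-maximal effect; plate controls were no enzyme wells and a reference inhibitor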
# G9a block – blocks human histone lysine methyltransferase G9a | Potency, µM (highest dose often 102 µM), without a hit: at the top dose activity, negative = inhibition, most hits filed as inhibitors | 8.8% of 350,000 active | G9a H3K9 monomethylation, AlphaScreen, 2 h | Q96KQ7; also: potency is read from the fitted curve at half-maximal effect; % is scaled to controls: 0 for no effect and ±100 for the full control effect; nearly all actives have a fitted effect of over 75% in size
#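 Signal arises when biotinylated H3K9 peptide, once monomethylated, bridges streptavidin donor and antibody-captured acceptor beads. Enzyme at 20 nM was preincubated 15 min with test compounds; peptide 500 nM and SAM 20 uM then reacted for 2 h.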
# Numbers without * were called inactive; ? = inconclusive; . = no result given; [ ] = dose if it differs, or a comment. Unless noted, calls follow the shape of the dose curve; as a rule, active = well fitted curve in the direction sought with a large enough effect; inconclusive = small, poorly fitted or top-dose-only effect, or another doubt; inactive = no such curve, though single readings can be large; an effect the other way counts as inactive or inconclusive.
1) Cc1cc(/C=C(\C#N)C(=O)Nc2ccc(Cl)cc2)c(C)n1-c1ccc(N2CCOCC2)c([N+](=O)[O-])c1
2) Cc1ccc(C)n1-c1ccc(N2CCOCC2)c([N+](=O)[O-])c1
3) O=C(CN1CCOCC1)N/N=C/c1ccccc1
4) CC1(CC(=O)N/N=C/c2ccc(-c3ccc(Cl)cc3)o2)OCCO1
5) CC1(CC(=O)N/N=C/c2ccc(-c3ccc(C(=O)O)cc3)o2)OCCO1
6) COC(=O)c1ccc(-c2ccc(/C=N/NC(=O)CC3(C)OCCCO3)o2)cc1

entry no.,1,2,3,4,5,6
KDM4E inh,1%,?,6%,-4%,?,-5%
Lamin A splicing,?,.,1%[46 µM],-13%,1%,.
Sfp PPTase inh,-1%,-5%,10%,2%,-20%,50µM*
miR-21 reporter,1%,-8%,2%,-9%,-13%,-30%
ALDH1A1 block,?,.,11%,-10%,?,?
G9a block,-18%,.,9%[59 µM],?,8.9µM*,5%[12.7 µM]

7) O=C(CN1CCOCC1)N/N=C/c1ccc(-c2ccc(C(=O)O)cc2)o1
8) C/C(CCC(=O)OC[C@@H]1O[C@H](C#Cc2ccccc2)C=C[C@@H]1Oc1ccc(C)cc1)=N/O[C@@H](C)CN1CCCCc2nc(C)c(C)cc21
9) C/C(CCC(=O)OC[C@H]1O[C@H](C#Cc2ccccc2)C=C[C@@H]1Oc1ccc(C)cc1)=N\O[C@@H](C)CN1CCCCc2nc(C)c(C)cc21
10) COc1ccc(O[C@H]2C=C[C@@H](c3ccccc3)O[C@@H]2COC(=O)CC/C(C)=N/O[C@@H](C)CN2CCCCc3nc(C)c(C)cc32)cc1
11) Cc1nnc(SCC(=O)Nc2cccc([N+](=O)[O-])c2)n1CC1CCCO1 (stereo not drawn)
12) CCN(Cc1ccncc1)C(=O)c1cc(COc2ccc(F)cc2Cl)on1

entry no.,7,8,9,10,11,12
KDM4E inh,?,.,?,?,.,.
Lamin A splicing,.,.,-4%,-7%,.,.
Sfp PPTase inh,9%,8%,-5%,-9%,8%,7%
miR-21 reporter,-1%,.,-14%,-6%,1%,-8%
ALDH1A1 block,.,8%[13.5 µM],-7%,-12%,.,.
G9a block,40µM*,.,35µM*,35µM*,13%,.

13) Cc1ccc(CN(C)C(=O)c2cc(COc3ccc(F)cc3Cl)on2)o1
14) C#CCN(Cc1ccco1)C(=O)c1cc(COc2ccc(F)cc2Cl)on1
15) CN(Cc1nccn1C)C(=O)c1cc(COc2cccc(C(F)(F)F)c2)on1
16) Cc1ccc(CN(C)C(=O)c2cc(COc3cccc(C(F)(F)F)c3)on2)o1
17) CCn1ccc2cc(S(=O)(=O)N3CCC(C(=O)NCCOC)CC3)ccc21
18) COc1ccc2[nH]c3c(c2c1)[C@@H]1CCN2C(=O)CCC[C@H](C3)[C@H]12

entry no.,13,14,15,16,17,18
KDM4E inh,-8%,?,.,.,.,.
Lamin A splicing,.,1%[46 µM],.,.,16%[46 µM],.
Sfp PPTase inh,35µM*,13µM*,0%,20µM*,.,2%
miR-21 reporter,-37%,10%,-18%,-2%,-1%,-5%
ALDH1A1 block,7.1µM*,?,.,.,.,.
G9a block,.,.,2%,32µM*,0%[59 µM],32µM*

# In another format: 2 of the compounds above
item | KDM4E inh | Lamin A splicing | Sfp PPTase inh | miR-21 reporter | ALDH1A1 block | G9a block | SMILES
15 | . | . | 0% | -18% | . | 2% | CN(Cc1nccn1C)C(=O)c1cc(COc2cccc(C(F)(F)F)c2)on1
16 | . | . | 20µM* | -2% | . | 32µM* | Cc1ccc(CN(C)C(=O)c2cc(COc3cccc(C(F)(F)F)c3)on2)o1

# Among those listed so far, 2 contain a CF3 group.
15) CN(Cc1nccn1C)C(=O)c1cc(COc2cccc(C(F)(F)F)c2)on1
16) Cc1ccc(CN(C)C(=O)c2cc(COc3cccc(C(F)(F)F)c3)on2)o1

entry no.,15,16
KDM4E inh,.,.
Lamin A splicing,.,.
Sfp PPTase inh,0%,20µM*
miR-21 reporter,-18%,-2%
ALDH1A1 block,.,.
G9a block,2%,32µM*

# (list continues)
19) COc1ccc(CNC2C[C@H]3CCCC(=O)N4CC[C@@H](C2)[C@@H]34)cc1 (stereo partly drawn)
20) Oc1cc(O)cc(/C=C/c2ccc(O)c(O)c2)c1
21) Cc1nnc(Sc2cc(NCCO)c([N+](=O)[O-])c3nonc23)s1
22) Cc1nnc(Sc2cc(NCCCO)c([N+](=O)[O-])c3nonc23)s1
23) O=[N+]([O-])c1c(NCCO)cc(N2CCCCCC2)c2nonc12
24) COc1ccc(NC(=O)C(=O)NCC(c2ccc3c(c2)OCO3)N2CCN(C)CC2)cc1 (stereo not drawn)

entry no.,19,20,21,22,23,24
KDM4E inh,.,?,-3%,-3%,.,.
Lamin A splicing,.,?,?,.,.,?
Sfp PPTase inh,9%,40µM*,6.3µM*,3.2µM*,-1%,.
miR-21 reporter,.,.,?,?,-7%,-4%
ALDH1A1 block,-5%,?,-6%,?,.,.
G9a block,37%,0.67µM*,2µM*,5.6µM*,13%,-6%[59 µM]

25) Fc1ccc2c(c1)NC(c1ccncc1)=NC(c1cccs1)=N2
26) CC(C)c1ccc2c(c1)NC(c1ccc(F)cc1)=NC(c1cccs1)=N2
27) CCn1c(SCC(=O)Nc2ccc(C)cc2)nc2sc3c(c2c1=O)CCN(C)C3
28) CCCn1c(SCC(=O)N2CCN(C(C)=O)CC2)nc2sc3c(c2c1=O)CCC3
29) CCn1c(SCC(N)=O)nc2sc3c(c2c1=O)CCN(C)C3
30) CCSc1nc2sc3c(c2c(=O)n1-c1ccccc1)CCN(C)C3

entry no.,25,26,27,28,29,30
KDM4E inh,.,.,.,.,?,.
Lamin A splicing,.,.,.,.,.,.
Sfp PPTase inh,.,.,-4%,7%,-24%,-9%
miR-21 reporter,4%,0%,-4%,-3%,6%,1%
ALDH1A1 block,.,.,.,.,?,.
G9a block,-28%[59 µM],8.9µM*,?,71µM*,56µM*,79µM*

31) CCOC(=O)CSc1nnc2n(Cc3ccccc3)c(=O)c3c4c(sc3n12)CCC4
32) COc1cccc(-c2ccc3ncnc(N(C)C)c3c2)c1
33) Cc1cc(-c2ccc(C)c(S(=O)(=O)Nc3ccccc3C(F)(F)F)c2)on1
34) CCCc1ccc(S(=O)(=O)NCc2nnc(SC)n2C)cc1
35) CCc1nccn1CCC(=O)NC1CCCc2c1cnn2-c1ccc(F)cc1F (stereo not drawn)
36) CN1CCc2c(sc3c2c(=O)n(-c2ccccc2)c2nnc(SCc4ccccc4)n32)C1

entry no.,31,32,33,34,35,36
KDM4E inh,1%,.,.,.,.,?
Lamin A splicing,-7%,?,.,.,.,15%
Sfp PPTase inh,1%,?,.,20%,11%,-15%
miR-21 reporter,-5%,.,26%,-1%,0%,0%
ALDH1A1 block,-6%,29%,.,.,.,25µM*
G9a block,40µM*,4%[0.501 µM],-25%[59 µM],13%,.,?

37) COCCCNC(=O)C(C#N)c1nc2ccccc2nc1N1CCN(Cc2ccccc2)CC1 (stereo not drawn)
38) COCCOC(=O)C(C#N)c1nc2ccccc2nc1N1CCN(Cc2ccccc2)CC1 (stereo not drawn)
39) C=CCOC(=O)C(C#N)c1nc2ccccc2nc1N1CCN(Cc2ccccc2)CC1 (stereo not drawn)
40) COCC(C)OC(=O)C(C#N)c1nc2ccccc2nc1N1CCN(Cc2ccccc2)CC1 (stereo not drawn)
41) CCC(CC)COC(=O)C(C#N)c1nc2ccccc2nc1N1CCOCC1 (stereo not drawn)
42) CC(C)COC(=O)C(C#N)c1nc2ccccc2nc1N1CCN(Cc2ccccc2)CC1 (stereo not drawn)
43) CCCCNC(=O)C(C#N)c1nc2ccccc2nc1N1CCN(c2ccccc2F)CC1 (stereo not drawn)
44) COCc1cc(C)nc2sc3c(c12)NC(c1ccc(NC(C)=O)cc1)N(c1ccc(C)cc1)C3=O (stereo not drawn)

entry no.,37,38,39,40,41,42,43,44
KDM4E inh,?,?,?,-29%,0%,-28%,32µM*,.
Lamin A splicing,?,-2%,5%,6%,?,6%,9%,.
Sfp PPTase inh,0%,-7%,-6%,-19%,-10%,-8%,18%,.
miR-21 reporter,-1%,3%,-2%,2%,-9%,-3%,-21%,-14%
ALDH1A1 block,-11%,?,?,?,10µM*,13µM*,7%,.
G9a block,-1%[59 µM],?,?,45µM*,-22%[59 µM],-48%[12.7 µM],10%[59 µM],12%[59 µM]

# Bioassay records from PubChem.
